These results are taken from patent US20260207649A1, “LSD1 INHIBITOR AND PRMT6 INHIBITOR FOR USE IN THE TREATMENT OF A DISEASE ASSOCIATED WITH GAIN-OF-FUNCTION OF ANDROGEN RECEPTOR (AR) AND/OR WITH OVEREXPRESSION OF AN AR COACTIVATOR” (FONDAZIONE TELETHON ETS(30%), priority 2022, published 2026).

One assay deals with AR24Q (human) (UniProt P10275). As to the kind of experiment: cell-based or functional assay.
The next assay has as its target AR65Q (human) (UniProt P10275). The assay is described as follows: cell-based or functional assay.

In the case of “lysine specific demethylase 1 (LSD1) (from UniProt O60341 1-852) (enzyme)”, in the assay with AR24Q (human), the AR transactivation (ARE-luciferase transcriptional assay, HEK293T cells, DHT 10 nM) was found to be 1.4 fold and the AR transactivation (transcriptional assay, HEK293T cells) worked out at 1.3 fold. In the assay with AR65Q (human), the AR transactivation (ARE-luciferase transcriptional assay, HEK293T cells, DHT 10 nM) worked out at 1.4 fold and the AR transactivation (transcriptional assay, HEK293T cells) was 1.5 fold.
